Values quoted from earlier work as cited in patent publication US11293870B2, “Vital stain” (Mie University, priority 2013, dated 2022).

Conditions: Mouse, Intra-venous; cited from earlier work

SMILES: CC1(C)C(/C=C/C=C/C=C/C=C2\N(CCCCS(=O)(=O)O)c3ccc4ccccc4c3C2(C)C)=[N+](CCCCS(=O)(=O)[O-])c2ccc3ccccc3c21 [Indocyanine green, reference compound]
- LD50: 60 mg/kg
